According to US20240139349A1, “GADOLINIUM CHELATE, PREPARATION METHOD THEREFOR, AND APPLICATION THEREOF” (SUZHOU ZHECI PHARMACEUTICAL TECHNOLOGY CO., LTD., priority 2021, published 2024):

Assay: In vitro MRI determination of longitudinal and transverse relaxation rates (r1, r2) of aqueous solutions
Type: physicochemical
[1] = H0 3.0 T clinical MRI system (Philips, Ingenia), aqueous solutions

Gd-HSA: gadolinium chelate of human serum albumin
r2/r1 (H0 3.0 T): 1.74±0.02 | r1 (longitudinal relaxation rate) [1]: 34430 ± 540 M⁻¹ s⁻¹ | r2 (transverse relaxation rate) [1]: 59920 ± 1570 M⁻¹ s⁻¹
